Laboratory results as given in publication PMC8691691 (ACS Chemical Neuroscience, 2021).
Changes are numbered by the printed parent chain.

Tests used:
GlyT2 W484C mutant = molecular target: T1, GlyT2 W484C mutant (Rattus norvegicus, UniProt P58295, W484C); assay: [3H]glycine transport by GlyT2 mutant in COS7 cells; type: cell-based
T1 construct: expressed in transfected cells; host or cells: COS7
T1 sequence (P58295 1-799 W484C): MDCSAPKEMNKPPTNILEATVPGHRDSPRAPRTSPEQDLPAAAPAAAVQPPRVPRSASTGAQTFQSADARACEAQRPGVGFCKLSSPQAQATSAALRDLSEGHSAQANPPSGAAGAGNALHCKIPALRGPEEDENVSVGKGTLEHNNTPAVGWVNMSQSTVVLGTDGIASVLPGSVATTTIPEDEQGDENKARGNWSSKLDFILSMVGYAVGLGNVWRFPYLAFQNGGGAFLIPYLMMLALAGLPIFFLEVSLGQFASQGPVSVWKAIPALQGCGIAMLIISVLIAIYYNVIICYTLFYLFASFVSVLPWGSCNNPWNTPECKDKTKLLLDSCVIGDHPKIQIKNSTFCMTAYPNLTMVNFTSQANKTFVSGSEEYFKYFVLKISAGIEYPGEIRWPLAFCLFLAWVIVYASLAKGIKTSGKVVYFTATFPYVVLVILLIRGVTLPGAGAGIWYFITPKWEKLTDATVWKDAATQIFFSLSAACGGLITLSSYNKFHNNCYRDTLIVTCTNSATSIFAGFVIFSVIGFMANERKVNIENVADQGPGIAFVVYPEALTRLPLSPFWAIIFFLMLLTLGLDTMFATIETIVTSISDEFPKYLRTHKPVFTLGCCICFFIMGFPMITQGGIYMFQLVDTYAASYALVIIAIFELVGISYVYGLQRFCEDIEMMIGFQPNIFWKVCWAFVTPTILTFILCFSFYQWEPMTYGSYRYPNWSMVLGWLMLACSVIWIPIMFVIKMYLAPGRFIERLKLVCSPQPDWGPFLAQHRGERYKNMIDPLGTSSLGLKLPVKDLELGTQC

GlyT2 F478Y mutant = molecular target: T2, GlyT2 F478Y mutant (Rattus norvegicus, UniProt P58295, F478Y); assay: as above; type: cell-based
T2 construct: expressed in transfected cells; host or cells: COS7
T2 sequence (P58295 1-799 F478Y): T1 sequence (P58295 1-799 W484C) with F478Y, C484W

For `NCC(=O)O` [Gly, glycine], the EC50 (GlyT2 W484C mutant) was 2340 ± 209 µM and the EC50 (GlyT2 F478Y mutant) was 290 ± 13 µM.
